Reference: ChEMBL document CHEMBL5104188, “Discovery and Characterization of Synthesized and FDA-Approved Inhibitors of Clostridial and Bacillary Collagenases” (J Med Chem, 2022)
Active and inactive are the calls of the source. The calls are words filed in the database; no cut-off is given here.

Each compound was assayed against Collagenase ColQ1 (Bacillus cereus) (UniProt B9J3S4) (assay: Inhibition of full length Bacillus cereus ColQ1 assessed as reduction in Col 1 cleavage at 1.5 to 12.5 uM incubated for 3 hrs by SDS-PAGE analysis). Conditions: dose 1.5-12.5 µM.
For `O=P(O)(O)c1nc2ccc(-c3ccc(Cl)cc3)cc2nc1P(=O)(O)O`, the inhibition was “Active”. For `CC(=O)Nc1ccc(OCc2cn(CCNC(=O)C(CC(C)C)C(=O)NO)nn2)cc1` (stereo not drawn), the inhibition was “Active”. For `CC(C)CC(C(=O)NO)C(=O)NCCn1cc(CSc2ccccc2)nn1` (stereo not drawn), the inhibition was “Active”. In the case of `O=P(O)(O)c1nc2ccc(Cl)cc2nc1P(=O)(O)O`, the inhibition is reported as “Active”. For `CC(=O)Nc1cccc(OCc2cn(CCNC(=O)C(CC(C)C)C(=O)NO)nn2)c1` (stereo not drawn), the inhibition was “Active”. `CC(C)CC(C(=O)NO)C(=O)NCCn1cc(COc2ccccc2)nn1` (stereo not drawn) was tested, and the inhibition was “Active”. `Cc1ccc2nc(P(=O)(O)O)c(P(=O)(O)O)nc2c1` was tested, and the inhibition was “Active”. In the case of `O=C(Nc1ccc(Cl)c(Cl)c1)c1ccc2nc(P(=O)(O)O)c(P(=O)(O)O)nc2c1`, the inhibition is reported as “Active”.
